# pKi: −log10 of the molar value.
# The chains behind the UniProt entries cited, without tags or fusion partners. Residues count along the entry.
# UniProt P25774, 115-331, species assumed: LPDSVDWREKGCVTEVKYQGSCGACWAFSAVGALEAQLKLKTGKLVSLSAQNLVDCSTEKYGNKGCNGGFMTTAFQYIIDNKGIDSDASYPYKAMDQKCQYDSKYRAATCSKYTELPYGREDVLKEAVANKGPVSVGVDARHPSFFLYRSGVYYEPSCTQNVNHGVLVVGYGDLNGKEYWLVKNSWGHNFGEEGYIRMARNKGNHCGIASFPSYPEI
# Target: Cathepsin S (Homo sapiens, UniProt P25774)
# Assay: Cathepsin S inhibition assay (fluorogenic peptide substrate)
# Format: biochemical
# Conditions: Table II, compounds of Formula I; read-out: Ki Cat. S
# Description: “Inhibition constant”, Ki, is the dissociation constant of the enzyme-inhibitor complex, or the reciprocal of the binding affinity of the inhibitor to the enzyme. […] The inhibited rates are then fit by nonlinear regression to the following equation: […]
# The assumption being made for the classical inhibition described above is that the free inhibitor concentration is equal to the total inhibitor concentration.
# Kinetic measurements are performed in a total reaction volume of 30 μl in 384-well microtiter plates. […] Control reactions in the absence of inhibitor are performed in replicates of 24. The reactions are initiated by adding the substrate, acetyl-histidine-proline-valine-lysine-amino carbamoyl coumarin, to a final concentration of 50 μM. The rate of substrate hydrolysis is measured by monitoring the increase in fluorescence at an excitation wavelength of 380 nm and an emission wavelength of 450 nm that results from cleavage of the aniline bond in the substrate by the enzyme.
substance,measurement,value
(S)-3-Bromo-N-{1-[2-(4-methoxy-phenylamino)-ethylcarbamoyl]-2-phenyl-ethyl}-4-methyl-benzamide [Compound 24],pKi,> 7.00
